Some results are limits rather than exact numbers.

The source of these data is publication PMC8429170 (Cellular and Molecular Life Sciences: CMLS, 2021).

In one assay the target is T1, GPR1 (Homo sapiens, UniProt P46091).
T1 construct: expressed in transfected cells; host or cells: COS-7, transient
It is filed as cell-based. To be noted: COS-7 cells, GPR1-eYFP and Rluc8-Arr3; at least two independent experiments in quadruplicates. As for the experimental part: Arrestin recruitment was characterized by measuring the bioluminescence resonance energy transfer (BRET) ratio between luciferase-tagged arrestin3 and either GPR1-eYFP or CMKLR1-eYFP as described previously. In brief, COS-7 cells in 75 cm^2 cell culture flasks were transiently transfected overnight with 7800 ng GPR1-eYFP or CMKLR1-eYFP in pVitro2 and 200 ng Rluc8-Arr3 in pcDNA3 using MetafectenePro according to the manufacturer’s protocol. […] For kinetic measurements, cells were stimulated with agonist in buffer or buffer alone, and fluorescence was measured for 20 min using a Tecan Infinite M 200 Reader (Tecan, Männerdorf, Switzerland) using the filter sets Green1 (YFP emission, luminescence 520–570 nm) and Blue1 (luciferase luminescence 370–480 nm). For concentration–response curves, cells were stimulated with agonist or blank, and luminescence was measured after 10 min. BRET signal was calculated as the ratio of fluorescence divided by luminescence, netBRET signal was calculated by subtracting the BRET signal of unstimulated wells from the respective samples.

In assay [1] the target is T2, GPR1-eYFP (human) (UniProt P46091).
T2 sequence: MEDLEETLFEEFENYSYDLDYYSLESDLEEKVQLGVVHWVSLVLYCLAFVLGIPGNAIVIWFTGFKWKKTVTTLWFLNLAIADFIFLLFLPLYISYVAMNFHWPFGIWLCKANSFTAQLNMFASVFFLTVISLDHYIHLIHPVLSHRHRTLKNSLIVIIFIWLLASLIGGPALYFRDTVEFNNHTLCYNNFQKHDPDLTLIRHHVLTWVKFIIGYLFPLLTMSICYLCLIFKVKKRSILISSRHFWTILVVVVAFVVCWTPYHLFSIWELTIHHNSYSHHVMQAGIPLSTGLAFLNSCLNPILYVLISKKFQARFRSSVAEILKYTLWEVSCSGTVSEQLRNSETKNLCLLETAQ

The target of assay [2] is T2, GPR1-eYFP (human). The source holds these as a separate data set.

Consider `C[C@H](NC(=O)[C@H](Cc1ccccc1)NC(=O)[C@H](CCC(N)=O)NC(=O)CNC(=O)[C@@H]1CCCN1)C(=O)N[C@@H](Cc1ccccc1)C(=O)N[C@@H](CO)C(=O)O` [Chem^151−157], for which the “pEC50 ± SEM” value at GPR1 was < 6.

On to `C[C@H](NC(=O)[C@@H]1CCCN1C(=O)[C@H](Cc1ccccc1)NC(=O)[C@H](Cc1ccccc1)NC(=O)[C@H](CO)NC(=O)[C@H](Cc1ccc(O)cc1)NC(=O)[C@H](Cc1ccccc1)NC(=O)[C@@H](N)CCC(N)=O)C(=O)NCC(=O)O` [scr2C9], for which the “pEC50 ± SEM” value at GPR1 was < 6. Regarding Chem^149-157 (chemerin-9) (peptide), the EC50 of arrestin3 recruitment to GPR1-eYFP (BRET with Rluc8-Arr3, COS-7 cells) with GPR1-eYFP (human) [1] is 1.9 nM. In the assay with GPR1-eYFP (human) [2], [N–C]-c(chemerin-9) (peptide) yielded an EC50 of arrestin3 recruitment to GPR1-eYFP (BRET) of 132 nM.

B1: ChemF156 (ligand)
chain: ELTEAQRRGLQVALEEFHKHPPVQWAFQETSVESAVDTPFPAGIFVRLEFKLQQTSCRKRDWKKPECKVRPNGRKRKCLACIKLGSEDKVLGRLVHCPIETQVLREAEEHQETQCLRVQRAGEDPHSFYFPGQFAF
In the case of B1, the “pEC50 ± SEM” value with GPR1 came out at 8.57 ± 0.16.
